The text below walks through data of PubChem BioAssay AID1463 (National Center for Advancing Translational Sciences (NCATS), 2008).

This is a selection; strong and weak results do not stand in their true shares. Results filed as inconclusive are left out. Entries that show only a call come without a potency. Calls of active or inactive are those of the source. The call rests on the fitted dose curve; in most records, active means well fitted curve in the direction sought with a large enough effect; inconclusive means small, poorly fitted or top-dose-only effect; inactive means flat fitted curve, though single readings scatter.
Potency means the concentration at half of the fitted maximal effect; tags describe the fitted curve by direction and shape or compound fluorescence and quenching.

This assay in a line: Counterscreen qHTS for Inhibitors of Tau Fibril Formation, Fluorescence Polarization. Further: nearly all actives have a fitted effect of over 55% in size. The note with it: tau K18 P301L (four-repeat tau fragment) Alexa594 fluorescence, heparin fibrillization; series mostly up to 57.7 µM. A general note: The purpose of a counterscreen is to sort out artefacts and off-target activity.
Take `COc1ccc2nc(NP(=O)(c3ccccc3)c3ccccc3)sc2c1`: the Potency entry was “inactive”.
The same measure for `COc1cc(I)ccc1[As](=O)(O)O`: “inactive”; for `Cc1c2c(nc3ccccc13)SC(C(Cl)Cl)C2` (centres undefined): “inactive”.
`O=C(OC1CN2CCC1CC2)C12CC3CC(CC(C3)C1)C2` (centres undefined): the Potency result was “inactive”.
For `Cc1cc(=O)[nH]c(N[N+](=O)[O-])n1` the value was “inactive”.
The same measure for `COc1ccc(N/C(=N/P(=O)(N2CCOCC2)N2CCOCC2)N2CCOCC2)cc1`: “inactive”.
In the case of `Cc1ccc(OP(=O)(Nc2ccc([N+](=O)[O-])cn2)Oc2ccc(C)cc2)cc1`, the Potency entry was “inactive”.
The same measure for `Cc1ccc2nc3c(c(C)c2c1)CC(C(Cl)Cl)S3` (centres undefined): “inactive”; for `O=[As](O)(c1ccc(O)cc1)c1ccccc1O`: “inactive”.
For `C[As](=O)(O)c1cccc(C(=O)O)c1` the value was “inactive”.
On to `CCN(CC)C(=S)SC(NC=O)C(Cl)(Cl)Cl` (centres undefined), for which the Potency entry is “inactive”.
For `CC(C)NC(=O)NP(=O)(Oc1ccccc1)Oc1ccccc1` the value was “inactive”; for `O=[N+]([O-])c1cc([N+](=O)[O-])c(-c2ccn[nH]2)s1`, “inactive”.
The same measure for `ClCCSc1nnc(-c2cccnc2)o1`: “inactive”; for `CC(C)c1ccc(OP(=O)(Nc2ccccn2)Oc2ccccc2F)cc1` (centres undefined): “inactive”; for `Cc1cc(SC(NC(=O)c2ccccc2)C(Cl)(Cl)Cl)nc(C(C)C)n1` (centres undefined): “inactive”.
For the compound `CCOC(=O)Nc1ccc([As](=O)(O)O)c(O)c1`, the Potency result is “inactive”.
As for `O=P(Nc1ccccn1)(c1cccc2ccccc12)c1cccc2ccccc12`, the Potency result is “inactive”.
The same measure for `Cc1cc(SC(NC=O)C(Cl)(Cl)Cl)ncn1` (centres undefined): “inactive”.
For `O=[N+]([O-])c1ccc(Nc2ccc(Oc3ccc([N+](=O)[O-])cc3[N+](=O)[O-])cc2)c([N+](=O)[O-])c1` the value was “inactive”; for `CCOC(=O)Nc1cccc([As](=O)(O)O)c1`, “inactive”; for `O=C(COc1ccccc1)OC1CN2CCC1CC2` (centres undefined), “inactive”.
The same measure for `COP1(=S)c2c(C)nn(CCC#N)c2N=C(c2ccc(F)cc2)N1C` (centres undefined): “inactive”.
Consider `CCC(C)N(CC(C)C)C(=S)SC(NC(C)=O)C(Cl)(Cl)Cl` (centres undefined), for which the Potency entry was “inactive”.
The same measure for `CCOC(=O)c1ccc(NC(=O)C(C)(CCl)SC)cc1` (centres undefined): “inactive”; for `Clc1n[nH]nc1-c1nn[nH][15n]1`: “inactive”; for `CC(C)(C)C(=O)NC(Sc1ncccn1)C(Cl)(Cl)Cl` (centres undefined): “inactive”.
For `O=P1(Nc2ccccn2)COc2ccccc2OC1` the value was “inactive”; for `CN(CCCl)Cc1cc(Cl)c(NC2=NCCN2)c(Cl)c1`, “inactive”.
The same measure for `CCOP(=O)(Nc1ccc(C)cn1)OCC`: “inactive”; for `CC(C)/C=N\N=C(\N)N[N+](=O)[O-]`: “inactive”; for `O=[As](O)(c1ccccc1Br)c1ccccc1Br`: “inactive”.
With `CN(C)C1(CNC(=O)c2ccc(S(C)(=O)=O)cc2)CCCCC1`, the Potency result was “inactive”.
For `O=C(/C=C/c1ccccc1)OC1CN2CCC1CC2` (centres undefined) the value was “inactive”.
For `Cc1nn(-c2ccccc2)c2c1P(=O)(N1CCOCC1)N(C)C(c1ccccc1)=N2` (centres undefined) the value was “inactive”; for `CC1CCC(C(C)C)C(OP(=O)(Nc2ccccn2)c2ccccc2)C1` (centres undefined), “inactive”.
The same measure for `Nc1cccc([As](=O)(O)c2ccccc2)c1`: “inactive”.
For the compound `O=P1(Nc2ccc(Br)cn2)COc2ccccc2OC1`, the Potency entry is “inactive”.
The same measure for `Cc1ccc(OCC(=O)OC2CN3CCC2CC3)cc1` (centres undefined): “inactive”; for `O=[As](O)(c1cccs1)c1cccs1`: “inactive”; for `O=P1(Nc2ncccn2)COc2ccccc2OC1`: “inactive”.
On to `Nc1ccccc1[As](=O)(O)c1ccccc1`, for which the Potency result was “inactive”.
The same measure for `O=C(O)COc1ccc([As](=O)(O)O)cc1[N+](=O)[O-]`: “inactive”; for `CCOP1(=S)c2c(C)nn(CCC#N)c2N=C(c2ccccc2F)N1C` (centres undefined): “inactive”; for `O=P(Nc1nccs1)(c1ccccc1)c1nc2ccccc2s1` (centres undefined): “inactive”.
The same measure for `O=P(Nc1nccs1)(Oc1ccccc1)Oc1ccccc1`: “inactive”.
Take `CCOP1(=S)c2c(C)nn(CCC#N)c2N=C(c2ccc(F)cc2)N1C` (centres undefined): the Potency entry was “inactive”.
The same measure for `CN(C(=O)Cc1ccccc1)[C@@H]1CC[C@]2(CCCO2)C[C@H]1N1CCCC1`: “inactive”.
Regarding `O=[N+]([O-])c1ccc2c(c1)nnn2O`, the Potency entry was “inactive”.
Take `NC(=O)Nc1ccc([As](=O)(O)O)cc1`: the Potency entry is “inactive”.
For `O=[N+]([O-])CC(O)c1ccc([N+](=O)[O-])cc1` (centres undefined) the value was “inactive”; for `O=[As](O)(c1cccc(O)c1)c1cccc(O)c1`, “inactive”.
On to `Cc1cccc(OCC(=O)OC2CN3CCC2CC3)c1` (centres undefined), for which the Potency result is “inactive”.
Turning to `O=C(OC1CN2CCC1CC2)c1ccc(Cl)cc1` (centres undefined), the Potency result was “inactive”.
For `CN(C(=O)Cc1ccc(Cl)c(Cl)c1)[C@@H]1CC[C@]2(CCCO2)C[C@H]1N1CCCC1` the value was “inactive”.
For `COc1cc(C(=O)NCC2(N3CCOCC3)CCCCC2)cc(Cl)c1OC(C)C` the value was “inactive”.
As to `O=[As](O)(O)c1cccnc1`, the Potency entry was “inactive”.
The same measure for `COc1cc(C2NCCC3(OCCO3)C2(C)C)cc(OC)c1OC` (centres undefined): “inactive”; for `CCOP(=O)(Nc1cccc2ccccc12)OCC`: “inactive”; for `Cc1ccc(NCCc2c([N+](=O)[O-])cc([N+](=O)[O-])cc2[N+](=O)[O-])cc1`: active: 12.6 µM [quencher].
For `Nc1cccc2c([As](=O)(O)O)cccc12` the value was “inactive”.
For `CCCOP(=S)(Nc1nc(N)cc(=O)[nH]1)OCCC` the value was “inactive”.
As to `CC(C)(C)C(=O)NC(Sc1ccccc1)C(Cl)(Cl)Cl` (centres undefined), the Potency result was “inactive”.
The same measure for `O=P1(Nc2nc3ccc(Cl)cc3s2)COc2ccccc2O1` (centres undefined): “inactive”; for `CCOc1ccc(C2=NCC(CBr)S2)cc1` (centres undefined): “inactive”.
For `CC(=O)Nc1ccc([As](=O)(O)O)c(O)c1` the value was “inactive”; for `CC(=O)Nc1ccc(Oc2c([N+](=O)[O-])cc([N+](=O)[O-])cc2[N+](=O)[O-])cc1`, “inactive”; for `C[C@@H]1C=CCP(=O)(Oc2ccccc2)O1` (some centres undefined), “inactive”.
For `C[C@H]1OP(=O)(Oc2ccccc2)C[C@@H]2O[C@@H]21` (some centres undefined) the value was “inactive”.
With `c1ccc(-c2nn[nH]n2)c(-c2nn[nH]n2)c1`, the Potency entry is “inactive”.
For `Cc1ccc(NP(=O)(Oc2cccc(C)c2)Oc2cccc(C)c2)nc1` the value was “inactive”.
On to `CCOC(=O)NC(Sc1ccccc1)C(Cl)(Cl)Cl` (centres undefined), for which the Potency entry was “inactive”.
The same measure for `CCNC(=S)/N=C(\N)N[N+](=O)[O-]`: “inactive”.
For `O=C(NC1CCS(=O)(=O)C1)NP(=S)(Oc1ccccc1)Oc1ccccc1` (centres undefined) the value was “inactive”; for `Cc1ccccc1OP(=O)(Nc1ccccn1)Oc1ccccc1C`, “inactive”; for `CN(C)C(=O)Oc1noc2ccccc12`, “inactive”.
The same measure for `CCC(=O)N1C2C3N(C(=O)CC)C1C1N(C(=O)CC)C(C(N1C(=O)CC)N3C(=O)CC)N2C(=O)CC`: “inactive”.
On to `COC(=O)c1cc2c(s1)N=C(c1ccccc1)N(C)P2(=O)N1CCOCC1` (centres undefined), for which the Potency result was “inactive”.
The same measure for `CC(=O)NC(SC(=S)N(CC(C)C)CC(C)C)C(Cl)(Cl)Cl` (centres undefined): “inactive”; for `Cc1ccc(OP(=O)(Nc2ccccn2)Oc2ccc(C)cc2)cc1`: “inactive”.
The same measure for `CN(C(=O)Cc1ccccc1)[C@H]1CC[C@@]2(CCCO2)C[C@@H]1N1CCCC1`: “inactive”.
The same measure for `O=P(Nc1nc2ccccc2s1)(c1ccccc1)c1ccccc1`: “inactive”.
Regarding `C[C@H]1OP(=O)(Oc2ccccc2)[C@H](O)[C@H](O)[C@H]1N=[N+]=[N-]` (some centres undefined), the Potency entry was “inactive”.
Turning to `O=P(Nc1ccccn1)(c1ccc(Br)cc1)c1ccc(Br)cc1`, the Potency entry is “inactive”.
For `O=C(OC1CN2CCC1CC2)c1cccc(Cl)c1` (centres undefined) the value was “inactive”; for `Nc1ccc([As](=O)(O)c2ccc([N+](=O)[O-])cc2)cc1`, “inactive”; for `C(Cc1nn[nH]n1)Cc1nn[nH]n1`, “inactive”.
The same measure for `O=[As](O)(c1ccccc1)c1ccc(O)cc1`: “inactive”; for `CC(=O)NC(SC(=S)N(C)C)C(Cl)(Cl)Cl` (centres undefined): “inactive”; for `O=[N+]([O-])c1ncn(CCn2cnc([N+](=O)[O-])n2)n1`: “inactive”.
The same measure for `c1nnnn1CCn1cnnn1`: “inactive”; for `CC(C)C(=O)NC(Sc1ccccc1)C(Cl)(Cl)Cl` (centres undefined): “inactive”; for `O=P(Nc1nccs1)(c1ccccc1)c1ccccc1`: “inactive”.
For the compound `Cc1ccc(NP(=O)(Oc2ccccc2)Oc2ccccc2)nc1`, the Potency result is “inactive”.
For the compound `CCc1nc2c(n1)c1c(non1O)c1c2no[n+]1[O-]`, the Potency entry is “inactive”.
The same measure for `O=[N+]([O-])c1cc([N+](=O)[O-])c(CCNc2ccccc2)c([N+](=O)[O-])c1`: active: 3.16 µM [quencher]; for `O=[N+]([O-])c1cccc2n[nH]nc12`: “inactive”.
The same measure for `CC(=O)N1C2C3N(C(C)=O)C1C1N(C(C)=O)C(C(N1C(C)=O)N3C(C)=O)N2C(C)=O`: “inactive”; for `COc1ccc(C2=NCC(CBr)S2)cc1` (centres undefined): “inactive”.
As for `CC1CCN(C(=O)Oc2c(Cl)cc(Cl)c3cccnc23)CC1`, the Potency entry is “inactive”.
The same measure for `CC(=O)C1=CCCC2CCC1N2` (centres undefined): “inactive”; for `CC(C)=N/N=C(\N)N[N+](=O)[O-]`: “inactive”.
Consider `CN(C)C(=O)OCCc1n(C)cc[n+]1C`, for which the Potency result was “inactive”.
The same measure for `CCN(/C(=N/P(=O)(N1CCOCC1)N1CCOCC1)N1CCOCC1)c1ccc(OC)cc1`: “inactive”; for `Nc1ccc([As](=O)(O)c2ccc(N)cc2)cc1`: “inactive”.
For `O=C(Nc1cc([As](=O)(O)O)ccc1O)c1ccccc1` the value was “inactive”; for `O=C(O)CNc1ccc([As](=O)(O)O)cc1`, “inactive”; for `O=[N+]([O-])c1cccc(NC2=NCC(CBr)S2)c1` (centres undefined), “inactive”.
For `O=[N+]([O-])c1ncn(CCn2ncnc2[N+](=O)[O-])n1` the value was “inactive”; for `CC(C)(C)C(=O)NC(Sc1ccncn1)C(Cl)(Cl)Cl` (centres undefined), “inactive”; for `CCOP(=O)(Nc1ccccc1)OCC`, “inactive”.
In the case of `Cc1cc(SC(NC(=O)c2ccc(F)cc2)C(Cl)(Cl)Cl)ncn1` (centres undefined), the Potency entry is “inactive”.
For `Cc1ccc(NP(=O)(Oc2ccccc2F)Oc2ccccc2F)nc1` the value was “inactive”; for `O=P(Nc1nc2ccc(Cl)cc2s1)(c1ccccc1)c1ccccc1`, “inactive”.
For `O=C(O)c1ccccc1[As](=O)(O)O` the value was “inactive”; for `CC(=O)Nc1ccc([As](=O)(O)O)cc1`, “inactive”; for `Nc1cccc2ccc([As](=O)(O)O)cc12`, “inactive”.
The same measure for `CCN(N=Nc1nonc1N)c1nonc1N`: “inactive”.
Regarding `Clc1ccc(Cl)c(NC2=NCC(CBr)S2)c1` (centres undefined), the Potency entry is “inactive”.
For `CN1CCCC(OC(=O)C(c2ccccc2)c2ccccc2)C1` (centres undefined) the value was “inactive”; for `COc1ccccc1OP(=O)(Nc1ccc(C)cn1)Oc1ccccc1OC`, “inactive”.
For `Cc1ccc(OP(=O)(Nc2nccs2)Oc2ccc(C)cc2)cc1` the value was “inactive”; for `Cc1ccc(N/C(=N/P(=O)(N2CCOCC2)N2CCOCC2)N2CCOCC2)cc1`, “inactive”.
For `NC(=O)c1cc([N+](=O)[O-])cc([N+](=O)[O-])c1N` the value was “inactive”; for `Oc1ccccc1CNc1ccccn1`, “inactive”; for `Cc1c2non([O-])c-2c(C)[n+](=O)[n+]1[O-]`, “inactive”.
For the compound `O=C(NC(Sc1ccncn1)C(Cl)(Cl)Cl)c1ccccc1` (centres undefined), the Potency entry was “inactive”.
As to `CC(C)CC(=O)NC(Sc1ccc(Cl)cc1)C(Cl)(Cl)Cl` (centres undefined), the Potency result was “inactive”.
For `Nc1cc(N)c2nonc2c1[N+](=O)[O-]` the value was “inactive”.
